# Experimental water solubility values from OPERA 2.9

Source: data files of OPERA 2.9 (Mansouri et al.), github.com/kmansouri/OPERA.

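OPERA's authors assembled the values from existing databases and did not measure them anew. One number stands for a compound and property, with no spread given. How each value was measured is not recorded, so precision varies. A value may pool stereoisomers or salt forms, and the file does not say which form was measured. Some upstream entries may be estimates or bounds without being marked so.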

Solubility in water is on a log10 molar scale (set defined at 25 °C).
Cells with "n/a" have no entry in this list.

| structure (SMILES) | name | water solubility (log10 mol/L) |
|---|---|---|
| Cc1cccc(NC(N)=O)c1 | Urea, (3-methylphenyl)- | -1.4 |
| Cc1cnc2nc[nH]c(=O)c2n1 | 6-Methyl-3H-pteridin-4-one | -1.649 |
| O=C(O)c1cccc(I)c1 | Benzoic acid, 3-iodo- | -3.27 |
| NC(=O)Nc1ccccc1 | 1-Phenylurea | -0.898 |
| N#CCC(=O)N1CCCCC1 | 1-(Cyanoacetyl)piperidine | -0.915 |
| CCCCCCCCCCCCOC(=O)C(C)O (centres undefined) | Propanoic acid, 2-hydroxy-, dodecyl ester | -1.41 |
| O=C(CCCN1CCC(O)(c2ccc(Cl)cc2)CC1)c1ccccc1 | n/a | -4.709 |
| O=C([O-])CCC/C=C\C[C@@H]1[C@@H](/C=C/[C@@H](O)COc2cccc(Cl)c2)[C@H](O)C[C@@H]1O.[Na+] | Cloprostenol sodium | -4.65 |
| Cn1c(=O)n(CC=O)c(=O)c2[nH]cnc21 | 1-Theobromineacetaldehyde | -1.388 |
| CC[C@H]1OC(=O)C[C@@H](O)[C@H](C)[C@@H](O[C@@H]2O[C@H](C)[C@@H](O)[C@H](N(C)C)[C@H]2O)[C@@H](CCN2C[C@H](C)C[C@H](C)C2)C[C@@H](C)C(=O)C=CC(C)=C[C@@H]1CO[C@@H]1O[C@H](C)[C@@H](O)[C@@H](OC)[C@H]1OC | Tilmicosin | -0.186 |
| Clc1ccc(Oc2c(Cl)ccc(Cl)c2Cl)cc1Cl | 2,3,3',4',6-Pentachlorodiphenyl ether | -7.35 |
| Cn1cnc2c(=O)nc[nH]c21 | 9-Methylhypoxanthine | -1.796 |
| N#C/C(=C\c1cccc(Cl)c1F)c1ccc(Cl)cc1F | n/a | -7.191 |
| C[C@@H]1CC(=O)NN=C1c1ccc(NN=C(C#N)C#N)cc1 | Levosimendan | -3.503 |
| O=C(O)C1=C(CSc2nnnn2CS(=O)(=O)O)CS[C@@H]2[C@H](NC(=O)[C@H](O)c3ccccc3)C(=O)N12 | Cefonicid | -2.783 |
| Nc1ccc(Nc2ccc(N)cc2S(=O)(=O)O)cc1 | n/a | -2.793 |
| Cn1c(=O)[nH]c2[nH]c(=O)n(C)c2c1=O | 1,7-Dimethyluric acid | -2.441 |
| CCC(C)N1C(=O)c2ccccc2C1=O (centres undefined) | 1H-Isoindole-1,3(2H)-dione, 2-(1-methylpropyl)- | -2.91 |
| Cl.Nc1c2ccccc2nc2ccccc12 | 9-Aminoacridine hydrochloride | -2.102 |
| Nc1ccc2c(S(=O)(=O)O)cccc2c1 | 6-Aminonaphthalene-1-sulphonic acid | -2.83 |
| CC(=O)OC/C=C(/C)CCC=C(C)C | cis-3,7-Dimethyl-2,6-octadien-1-yl acetate | -3.794 |
| CCCCCCCOc1ccc(C(C)(c2ccccc2)c2ccc(OCCCCCCC)cc2)cc1 | n/a | -9.044 |
| O=[N+]([O-])c1ccc(Br)c(Cl)c1 | 1-Bromo-2-chloro-4-nitrobenzene | -4.09 |
| COc1cnc(-n2cnc(C)n2)c2c1c(C(=O)C(=O)N1CCN(C(=O)c3ccccc3)CC1)cn2COP(=O)(O)O | n/a | -0.368 |
| CCCCCCCCC(=O)OCC(CC)CCCC (centres undefined) | Nonanoic acid, 2-ethylhexyl ester | -6.733 |
| CCC(C)(C(=O)O)N1C(=O)c2ccccc2C1=O (centres undefined) | n/a | -1.916 |
| CCCCCCCCCCCCOc1ccc(C(=O)O)cc1 | 4-(Dodecyloxy)benzoic acid | -2.45 |
| CCOC(CNCC(OCC)OCC)OCC | N-(2,2-Diethoxyethyl)-2,2-diethoxyethan-1-amine | 0.126 |
| CC[C@@H](CO)NCCN[C@@H](CC)CO | Ethambutol | -1.431 |
| Nc1nc(=O)c2ncc(=O)[nH]c2[nH]1 | 2-Amino-4,7(1H,8H)-pteridinedione | -4.548 |

Repeated from above, the 5 entries with the highest water solubility:

| structure (SMILES) | name | water solubility (log10 mol/L) |
|---|---|---|
| CCOC(CNCC(OCC)OCC)OCC | N-(2,2-Diethoxyethyl)-2,2-diethoxyethan-1-amine | 0.126 |
| CC[C@H]1OC(=O)C[C@@H](O)[C@H](C)[C@@H](O[C@@H]2O[C@H](C)[C@@H](O)[C@H](N(C)C)[C@H]2O)[C@@H](CCN2C[C@H](C)C[C@H](C)C2)C[C@@H](C)C(=O)C=CC(C)=C[C@@H]1CO[C@@H]1O[C@H](C)[C@@H](O)[C@@H](OC)[C@H]1OC | Tilmicosin | -0.186 |
| COc1cnc(-n2cnc(C)n2)c2c1c(C(=O)C(=O)N1CCN(C(=O)c3ccccc3)CC1)cn2COP(=O)(O)O | n/a | -0.368 |
| NC(=O)Nc1ccccc1 | 1-Phenylurea | -0.898 |
| N#CCC(=O)N1CCCCC1 | 1-(Cyanoacetyl)piperidine | -0.915 |